Source: US20080138411A1, “Modified Release Formulations Of Selective Serotonin Re-Uptake Inhibitors” (priority 2002, published 2008)

Assay: Particle size measurement of Citalopram HBr, Paroxetine HCl and Fluoxetine HCl
Format: physicochemical
Details: Dist. Base: Volume
Method: Particle size measurements were conducted on Paroxetine HCl.

**Q.** Which “Particle size, Mode” value does the source give for `CNCCC(Oc1ccc(C(F)(F)F)cc1)c1ccccc1.Cl` (centres unmarked) [Fluoxetine HCl Provided by Supplier 2] here?
**A.** 18.612 µm

**Q.** And the “Span: (D 20.0-D 10.0)/D50” value?
**A.** Span: (D 20.0-D 10.0)/D50 = 0.178
